The values below come from patent US20220378747A1, “TOPICAL COMPOSITION FOR TREATING SKIN WOUNDS” (priority 2021, published 2022).

This data set can be described thus: 0.1M Zinc Gluconate and 0.1M Amino Acid Solutions: pH and precipitation on adjusting pH to 7.0. As to conditions: pH adjusted to 7.0 with NaOH.

SMILES strings stand for the structures.

Regarding `N[C@@H](Cc1ccc(O)cc1)C(=O)O` [Tyrosine], the Observations result is recorded as “Not soluble”.
